In ChEMBL document CHEMBL3797021, “Design, synthesis, and biological evaluation of substrate-competitive inhibitors of C-terminal Binding Protein (CtBP)” (Bioorg Med Chem, 2016) one finds Ratio IC50 data, which are given here for one molecule.

The experiment is described as follows: Selectivity ratio of IC50 for rabbit muscle L-lactate dehydrogenase to IC50 for recombinant His6-tagged CtBP2 (31 to 384 residues) (unknown origin) dehydrogenase activity.

With `O=C(O)/C(Cc1ccc(Cl)cc1)=N\O`, the Ratio IC50 was more than 170.
